{"source": "paper PMC12319226", "about": "(Frontiers in Bioinformatics, 2025)", "binders": {"B1": {"name": "chimeric antibody hJAR5 (antibody, V domains shown)", "VH": "QVQMQQPGAELVKPGASVKLSCKASGYTFISYWMHWVKQRPGRGLEWIGRIAPDTGIIYYNEKFKNKATLTVDTPSSTAYMQLNSLTSEDSAVYYCARYLKYDGSTYRFDYWGQGTTLTVSS", "VL": "DIVMTQAAPSVPVTPGESVSISCRSSKSLLHSNGNTYLFWFLQRPGQSPQLLIYRMSNLASGVPDRFSGSGSGTSFTLRISRVEAEDVGVYYCMQHLEYPYTFGGGTKLEIK"}, "B2": {"name": "chimeric antibody hJAR5 (antibody, V domains shown)", "VH": "B1 VH", "VL": "B1 VL", "notes": "also called hJAR5-2; humanized JAR5; source: Expi293, purified (MabSelect SuRe, SEC); copies: 2 + 2"}, "B3": {"name": "mAb JAR5 (mouse) (antibody, V domains shown)", "VH": "B1 VH", "VL": "B1 VL", "notes": "source: Expi293, purified (MabSelect SuRe, SEC); copies: 2 + 2"}}, "assay_in_all_cases": "BLI", "details_in_all_cases": "both partners purified", "key": {"[1]": {"molecular_target": "T1, Neisseria meningitidis factor H binding protein variant 1.1 (Neisseria meningitidis, UniProt Q9JXV4)", "T1 construct": "also called fHbp v1.1; fHbp variant 1.1"}, "[2]": {"molecular_target": "T2, factor H binding protein variant 1.1 (Neisseria meningitidis serogroup B …, UniProt Q9JXV4)", "T2 construct": "also called fHbp v1.1; v1.1 Control (0001)"}, "[3]": {"molecular_target": "T2, factor H binding protein variant 1.1", "remark": "listed apart in the source"}}}
{"binder": "B1", "values": [{"measurement": "Kd", "setting": "[1]", "result": "0.2 to 0.7", "unit": "nM"}]}
{"binder": "B2", "values": [{"measurement": "Kd", "setting": "[2]", "result": 0.798, "unit": "nM"}, {"measurement": "koff", "setting": "[2]", "result": 0.000617, "unit": "s⁻¹"}, {"measurement": "kon", "setting": "[2]", "result": "773000 ± 2600", "unit": "M⁻¹ s⁻¹"}]}
{"binder": "B3", "values": [{"measurement": "Kd", "setting": "[3]", "result": 0.237, "unit": "nM"}, {"measurement": "koff", "setting": "[3]", "result": 0.000299, "unit": "s⁻¹"}, {"measurement": "kon", "setting": "[3]", "result": "1.26e+06 ± 9090", "unit": "M⁻¹ s⁻¹"}]}
